In the assay the target is Human immunodeficiency virus type 1 protease (Human immunodeficiency virus 1, UniProt Q72874). Briefly: Inhibitory activity against HIV protease at pH 6.2.

This passage reports IC50 results from ChEMBL document CHEMBL1130235, “4-hydroxy-5,6-dihydropyrones. 2. Potent non-peptide inhibitors of HIV protease” (J Med Chem, 1997).

Take `CC(C)c1ccccc1Sc1c(O)cc(-c2ccccc2)oc1=O`: it took 0.7 µM to reach half-maximal inhibition (IC50).
